Experimental data published in paper PMC7170889, “Synthesis and evaluation of designed PKC modulators for enhanced cancer immunotherapy” (Nature Communications, 2020).

By UniProt entry, the sequences of proteins in these tests, tags left out. Where a name states a change or a piece, a line headed by the entry shows the natural chain unless it says otherwise.
UniProt Q05655: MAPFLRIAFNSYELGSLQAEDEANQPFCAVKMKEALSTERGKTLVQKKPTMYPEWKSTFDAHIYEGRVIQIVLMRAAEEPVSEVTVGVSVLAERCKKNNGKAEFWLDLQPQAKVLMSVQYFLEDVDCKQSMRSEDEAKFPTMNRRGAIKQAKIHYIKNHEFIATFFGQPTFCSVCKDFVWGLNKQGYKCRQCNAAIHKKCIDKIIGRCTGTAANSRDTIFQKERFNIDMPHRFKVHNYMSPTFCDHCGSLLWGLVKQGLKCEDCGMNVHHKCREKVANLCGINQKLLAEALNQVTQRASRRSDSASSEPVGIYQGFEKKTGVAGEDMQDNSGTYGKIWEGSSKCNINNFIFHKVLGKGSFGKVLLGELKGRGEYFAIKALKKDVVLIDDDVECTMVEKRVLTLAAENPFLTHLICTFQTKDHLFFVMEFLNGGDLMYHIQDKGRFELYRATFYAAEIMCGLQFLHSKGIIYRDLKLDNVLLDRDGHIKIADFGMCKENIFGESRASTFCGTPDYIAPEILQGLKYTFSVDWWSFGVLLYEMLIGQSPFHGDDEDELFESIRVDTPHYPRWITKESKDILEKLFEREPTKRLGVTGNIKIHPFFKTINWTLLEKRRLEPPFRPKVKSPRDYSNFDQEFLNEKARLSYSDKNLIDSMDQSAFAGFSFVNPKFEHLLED

Target: T1, PKCδ-GFP fusion protein (Homo sapiens, UniProt Q05655)
T1 construct: expressed in transfected cells; host or cells: CHO-k1 (Chinese hamster ovary, ATCC)
Test: PKCδ-GFP translocation assay in living CHO-k1 cells (confocal microscopy)
Type: cell-based, Chinese hamster
Procedure: With a panel of compounds bearing diverse functionality at C13, we began to explore how these modifications affect PKC binding and biological function. Because an obvious prerequisite for PKC pathway involvement is binding to PKC, compounds were initially evaluated for PKC affinity in a cell-free competitive binding assay with tritiated phorbol dibutyrate ([^3H]-PDBu). Assays were performed with representative members of both the conventional (PKCα) and novel (PKCδ) PKC families. Subsequently, compounds were assayed for PKC isoform translocation in real time in living cells using an optical assay. Translocation to the plasma membrane is the hallmark of PKC activation[18],[57],[60] and therefore monitoring the subcellular localization of a PKCδ-GFP fusion protein via confocal microscopy offers a convenient method for determining whether a compound enters a cell and engages its PKC isoform target. Finally and of clinical significance, we also determined the effect of compounds on CD22 surface expression in vitro in NALM6 cells, an ALL cell line previously studied in connection with CD22-targeted CAR T cell therapy, and two additional lymphoma cell lines[11],[31],[65].
Fig. 5 Bryostatin-induced PKC translocation. a Bryostatin-induced translocation of PKC from the cytosol to the membrane was determined in real time by monitoring cytosolic fluorescence of a PKCδ-GFP fusion protein using confocal microscopy. Scale bar represents 25 μm. Experiments performed in n = 3 biological replicates. b–d Cytosolic fluorescence normalized to t = 0 (time immediately prior to addition of compound to media) and plotted against time. Error bars excluded for clarity (data presented as the mean of n = 3 biological replicates). Individual curves with error bars included in Supplementary Information.
PKCδ-GFP Translocation Assay Protocol
Chinese hamster ovary factor K1 (CHO-k1, ATCC) cells were cultured in F-12 Kaighn’s media (Hyclone, 10% fetal bovine serum, 1% penicillin/streptomycin added, reffered to as F-12 +/+ below) at 37 ° C in an incubator (5% CO2). Cell cultures were maintained by splitting cells 1:3 when they reached ~75-100% confluence (every 2-3 days) as follows:
Media was aspirated (taking care not to disturb adherent cells) and 3 mL of 0.25% trypsin EDTA (Gibco) was used to remove the cells from the culture flask (T75, Falcon). 1 mL of the cell suspension was then added to 9 mL of fresh F-12 +/+ and the sample was sub-cultured until reaching confluence (~2-3 days).
A confluent culture of CHO-k1 cells was detached from a T75 flask with 3 mL 0.25% trypsin EDTA.
Cells were counted using a Countess II Automated Cell Counter (Fisher). The cell suspension was diluted to 240,000 cells/mL with fresh F-12 +/+ and 2.5 mL of this diluted stock was added to one well in a 6-well plate. […]

CCC/C=C/C=C/C(=O)O[C@H]1/C(=C/C(=O)OC)C[C@H]2C[C@H]([C@@H](C)O)OC(=O)C[C@H](O)C[C@@H]3C[C@H](OC(C)=O)C(C)(C)[C@](O)(C[C@@H]4C/C(=C/C(=O)OC)C[C@H](/C=C/C(C)(C)[C@]1(O)O2)O4)O3 [Bryostatin 1, reference compound]
time required for translocation (200 nM): ≤ 5 min | cytosolic PKCδ-GFP translocated to the plasma membrane (200 nM, within 5 min): ~ 70% | Emax at 0.2 µM (CHO-K1, read-out: % Translocation (maximum translocation of PKCδ-GFP to the plasma membrane)): 70% | minimum effective concentration required to induce translocation of PKC-GFP to the membrane (CHO-k1 cells, tested at 200 and 1000 nM): 200 nM
